Measured values as given in PubChem BioAssay (NCI).
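A five-concentration, 48-hour dose response in 96-well plates underlies each endpoint, interpolated linearly between surrounding concentrations. The concentration for 50% growth inhibition is given as GI50. At the TGI there is no net growth.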

What was measured:
Experiment in all cases: NCI-60 cell line screen, 48 h
[1] = system: 786-0 renal
[2] = system: A498 renal
[3] = system: A549 NSCLC
[4] = system: ACHN renal
[5] = system: BT-549 breast
[6] = system: CAKI-1 renal
[7] = system: CCRF-CEM leukemia
[8] = system: COLO 205 colon
[9] = system: DU-145 prostate
[10] = system: EKVX NSCLC
[11] = system: HCC-2998 colon
[12] = system: HCT-116 colon
[13] = system: HCT-15 colon
[14] = system: HL-60(TB) leukemia
[15] = system: HOP-62 NSCLC
[16] = system: HOP-92 NSCLC
[17] = system: HS 578T breast
[18] = system: HT29 colon
[19] = system: IGROV1 ovarian
[20] = system: K-562 leukemia
[21] = system: KM12 colon
[22] = system: LOX IMVI melanoma
[23] = system: M14 melanoma
[24] = system: MALME-3M melanoma
[25] = system: MCF7 breast
[26] = system: MDA-MB-231 breast
[27] = system: MDA-MB-435
[28] = system: MOLT-4 leukemia
[29] = system: NCI-H226 lung
[30] = system: NCI-H23 lung
[31] = system: NCI-H322M lung
[32] = system: NCI-H460 lung
[33] = system: NCI-H522 lung
[34] = system: NCI/ADR-RES ovarian
[35] = system: OVCAR-3 ovarian
[36] = system: OVCAR-4 ovarian
[37] = system: OVCAR-5 ovarian
[38] = system: OVCAR-8 ovarian
[39] = system: PC-3 prostate
[40] = system: RPMI-8226 leukemia
[41] = system: RXF 393 renal
[42] = system: SF-268 CNS
[43] = system: SF-295 CNS
[44] = system: SF-539 CNS
[45] = system: SK-MEL-2 melanoma
[46] = system: SK-MEL-28 melanoma
[47] = system: SK-MEL-5 melanoma
[48] = system: SK-OV-3 ovarian
[49] = system: SN12C renal
[50] = system: SNB-19 CNS
[51] = system: SNB-75 CNS
[52] = system: SW-620 colon
[53] = system: T-47D breast
[54] = system: TK-10 renal
[55] = system: U251 CNS
[56] = system: UACC-257 melanoma
[57] = system: UACC-62 melanoma
[58] = system: UO-31 renal

## O=[As]c1ccc(S(=O)(=O)Nc2ccccc2)cc1 (stereo unspecified)
[1]
  GI50: 1.55 µM
  TGI: 2.95 µM
[2]
  GI50: 2.58 µM
  TGI: 10.7 µM
[3]
  GI50: 18.6 µM
  TGI: 37.6 µM
[4]
  GI50: 1.8 µM
  TGI: 3.31 µM
[5]
  GI50: 1.73 µM
  TGI: 3.13 µM
[6]
  GI50: 1.76 µM
  TGI: 3.15 µM
[7]
  GI50: 0.887 µM
  TGI: 3.46 µM
[8]
  GI50: 1.58 µM
  TGI: 3.42 µM
[9]
  GI50: 3.54 µM
  TGI: 12.3 µM
[10]
  GI50: 1.71 µM
  TGI: 3.75 µM
[11]
  GI50: 2 µM
  TGI: 4.06 µM
[12]
  GI50: 1.93 µM
  TGI: 3.55 µM
[13]
  GI50: 1.39 µM
  TGI: 2.99 µM
[14]
  GI50: 1.27 µM
  TGI: 4.07 µM
[15]
  GI50: 2.89 µM
  TGI: 8.84 µM
[16]
  GI50: 1.57 µM
  TGI: 2.95 µM
[17]
  GI50: 2.87 µM
  TGI: 17.2 µM
[18]
  GI50: 2.43 µM
  TGI: 6.52 µM
[19]
  GI50: 1.98 µM
  TGI: 4 µM
[20]
  GI50: 1.12 µM
  TGI: 8.91 µM
[21]
  GI50: 3.5 µM
  TGI: 12.4 µM
[22]
  GI50: 1.73 µM
  TGI: 3.22 µM
[23]
  GI50: 2.03 µM
  TGI: 4.04 µM
[24]
  GI50: 1.67 µM
  TGI: 3.33 µM
[25]
  GI50: 1.19 µM
  TGI: 3.31 µM
[26]
  GI50: 1.54 µM
  TGI: 3.14 µM
[27]
  GI50: 1.63 µM
  TGI: 3.08 µM
[28]
  GI50: 2.37 µM
  TGI: 6.7 µM
[29]
  GI50: 2.06 µM
  TGI: 4.71 µM
[30]
  GI50: 2.5 µM
  TGI: 7.58 µM
[31]
  GI50: 7.46 µM
  TGI: 20.3 µM
[32]
  GI50: 17.5 µM
  TGI: 37.6 µM
[33]
  GI50: 0.18 µM
  TGI: 0.504 µM
[34]
  GI50: 6.25 µM
  TGI: 66.4 µM
[35]
  GI50: 1.71 µM
  TGI: 3.16 µM
[36]
  GI50: 1.89 µM
  TGI: 4.67 µM
[37]
  GI50: 2.1 µM
  TGI: 4.05 µM
[38]
  GI50: 2.75 µM
  TGI: 8.47 µM
[39]
  GI50: 4.98 µM
  TGI: 16.7 µM
[40]
  GI50: 1.61 µM
  TGI: 4.13 µM
[41]
  GI50: 1.69 µM
  TGI: 3.06 µM
[42]
  GI50: 1.75 µM
  TGI: 3.35 µM
[43]
  GI50: 16.2 µM
  TGI: 30 µM
[44]
  GI50: 1.69 µM
  TGI: 3.15 µM
[45]
  GI50: 1.81 µM
  TGI: 3.38 µM
[46]
  GI50: 1.71 µM
  TGI: 3.35 µM
[47]
  GI50: 1.88 µM
  TGI: 3.71 µM
[48]
  GI50: 11.9 µM
  TGI: 24.6 µM
[49]
  GI50: 1.8 µM
  TGI: 3.49 µM
[50]
  GI50: 2.62 µM
  TGI: 7.54 µM
[51]
  GI50: 1.53 µM
  TGI: 2.87 µM
[52]
  GI50: 1.54 µM
  TGI: 3.6 µM
[53]
  GI50: 0.648 µM
  TGI: 3.33 µM
[54]
  GI50: 1.88 µM
  TGI: 3.33 µM
[55]
  GI50: 1.75 µM
  TGI: 3.36 µM
[56]
  GI50: 1.72 µM
  TGI: 3.65 µM
[57]
  GI50: 1.83 µM
  TGI: 3.42 µM
[58]
  GI50: 1.46 µM
  TGI: 2.82 µM
